Measured values reported in US11071731B2, “Allosteric modulators of the mu opioid receptor” (Chiromics, LLC, priority 2017, dated 2021).

The chains behind the UniProt entries cited, without tags or fusion partners.
UniProt P35372, whole entry: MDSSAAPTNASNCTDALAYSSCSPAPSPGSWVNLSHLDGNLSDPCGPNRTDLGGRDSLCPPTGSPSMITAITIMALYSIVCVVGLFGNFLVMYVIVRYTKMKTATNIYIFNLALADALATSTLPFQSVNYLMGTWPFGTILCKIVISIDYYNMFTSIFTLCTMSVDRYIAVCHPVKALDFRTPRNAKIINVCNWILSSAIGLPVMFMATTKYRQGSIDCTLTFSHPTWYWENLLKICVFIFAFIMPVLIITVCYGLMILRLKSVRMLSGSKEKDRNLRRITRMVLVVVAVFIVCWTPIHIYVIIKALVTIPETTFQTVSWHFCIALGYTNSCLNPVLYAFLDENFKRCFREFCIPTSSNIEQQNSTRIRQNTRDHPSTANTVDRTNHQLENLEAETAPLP

How the values were obtained:
mu opioid receptor (MOR) [1] = biological target: T1, mu opioid receptor (MOR) (Homo sapiens, UniProt P35372); test: PathHunter β-arrestin recruitment assay, PAM mode with EC20 endomorphin-1; conditions: for pEC50: read-out: β-arr. EC50, β-arrestin recruitment
mu opioid receptor (MOR) [2] = biological target: T1, mu opioid receptor (MOR); test: Hit Hunter cAMP signaling assay (adenylyl cyclase inhibition), PAM mode with EC20 endomorphin-1; format: cell-based; conditions: for pEC50: read-out: cAMP EC50, adenylyl cyclase inhibition
[3] = maximal response for β-arrestin recruitment
[4] = maximal response for adenylyl cyclase inhibition

| Compound | β-arr Max. Resp. (mu opioid receptor (MOR) [1]; [3]) | pEC50 (mu opioid receptor (MOR) [1]) | cAMP Max. Resp. (mu opioid receptor (MOR) [2]; [4]) | pEC50 (mu opioid receptor (MOR) [2]) | β-arr. Max Resp. (mu opioid receptor (MOR) [1]; maximal response for β-arrestin recruitment, Table 3) | pEC50 (mu opioid receptor (MOR) [1]; Table 3) | cAMP Max Resp. (mu opioid receptor (MOR) [2]; maximal response for adenylyl cyclase inhibition, Table 3) | pEC50 (mu opioid receptor (MOR) [2]; Table 3) |
| --- | --- | --- | --- | --- | --- | --- | --- | --- |
| CCNc1cccc(C2CCCCN2Cc2cc(Cl)ccc2F)n1 (stereo not shown) | D (D represents a maximal response of < 40%) | < 5.68 | D (D represents a maximal response of < 40%) | < 5.68 |  |  |  |  |
| Fc1cc(C2CC(F)(F)CN2c2nc(Cl)ncc2F)cc(C(F)(F)F)c1 (stereo not shown) | F (F represents a maximal response of > 60%) | < 5.68 | F (F represents a maximal response of > 60%) | > 6.15 | 305 | 4.93 | 66 | 6.39 |
| Fc1ccc(C2CC(F)(F)CN2c2nc(Cl)ncc2F)cc1Cl (stereo not shown) | F (F represents a maximal response of > 60%) | < 5.68 | E (E represents a maximal response of 40-60%) | 5.68 to 6.15 |  |  |  |  |

pEC50: −log10 of the molar value.
